Data on three molecules can be found in PubChem BioAssay AID848 (Columbia University Molecular Screening Center, 2007).

The list shows a part of the results, in another mix than the full data. Some of these compounds have results that are not shown, active ones among them. Activity calls are given as the source filed them.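 The calls were made as follows: active = cell count reduction exceeding the screen mean by over 5 SD, scaled to untreated wells per plate (cut at about 78% in these data); inactive = the rest.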

This assay can be described thus: cytotoxicity in TNFa-stimulated HUVEC, primary screen, cytotoxicity control for VCAM1 expression modulator project, imaging, Hoechst nuclei count (AID 848).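 Also: cells counted after 24 h of TNF alpha exposure following the 1 h pretreatment.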 The conditions noted are these: HUVEC TNFalpha-stimulated, at 2 µM, hits give high values.
Regarding `O=C(OC1CN2CCC1CC2)C(CO)(c1ccccc1)c1ccccc1` (stereo not drawn), the cell count reduction was inactive: 20.3%. For `CN(C)c1cccc(C(=O)NCC2(N(C)C)CCCCC2)c1`, the cell count reduction was inactive: -38.2%. Consider `CC(C)N1C(=O)CC2(CCN(CCOC(=O)C(O)(c3ccccc3)c3ccccc3)CC2)C1=O`, for which the cell count reduction was inactive: -34.9%.
